Reference: US7939510B2, “Di(uridine 5′-)tetraphosphate and salts thereof” (priority 1997, dated 2011)

Conditions: battery of genetic toxicology assays

For “P^1,P^4-di(uridine 5′-)tetraphosphate, tetrasodium salt”, the genotoxicity was “nongenotoxic”.
